Measured values reported in patent US10285986B2, “Compounds and anti-tumor NQO1 substrates” (The Board of Trustees of the University of Illinois, priority 2011, dated 2019).
≈ marks a conversion by molar mass, not a printed value. Like-named read-outs stand apart in the source and are kept apart here.

Chains of the proteins cited; added tags and fusions are not shown.
UniProt P15559, whole entry: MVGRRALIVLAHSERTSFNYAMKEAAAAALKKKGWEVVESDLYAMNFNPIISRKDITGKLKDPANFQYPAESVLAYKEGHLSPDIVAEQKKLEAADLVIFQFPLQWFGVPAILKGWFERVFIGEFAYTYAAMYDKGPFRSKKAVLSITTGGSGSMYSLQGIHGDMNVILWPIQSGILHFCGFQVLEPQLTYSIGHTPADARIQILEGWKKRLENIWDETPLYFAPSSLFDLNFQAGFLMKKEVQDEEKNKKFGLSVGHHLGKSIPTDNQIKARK

Tests used:
MCF-7 cells = experiment: Cytotoxicity to MCF-7 cells with or without 25 μM dicoumarol (sulforhodamine B assay)
NQO1 = NQO1 (Homo sapiens, UniProt P15559); experiment: NQO1 enzymatic measurements in vitro
[1] = Solubility in organic solvents

NQO1 Vmax (NQO1): 750 ± 20 μmol/min/μmol protein | Catalytic Efficiency (NQO1; Table 1): 8.9e+06 M⁻¹ s⁻¹ | Solubility in 2:1 CH2Cl2:MeOH ([1]; 2:1 CH2Cl2:MeOH, Table 4.3): 34 mM (≈ 14.9 mg/mL) | CH2Cl2:MeOH 2:1 solubility ([1]; CH2Cl2:MeOH 2:1, Table 1): 34 mM | CH2Cl2 solubility ([1]; CH2Cl2, Table 1): 34 mM | Solubility in CH2Cl2 ([1]; CH2Cl2, Table 4.3): 34 mM (≈ 14.9 mg/mL) | DMSO solubility ([1]; DMSO, Table 1): 1.2 mM | Solubility in DMSO ([1]; DMSO, Table 4.3): 1.2 mM (≈ 0.526 mg/mL) | THF solubility ([1]; THF, Table 1): 19 mM
Structure (SMILES): CCCCCCCCCCCCn1c2c(c(C)cc1=O)C(=O)c1c(C)cc(=O)[nH]c1C2=O
IC50 (MCF-7 cells; read-out: IC50 vs. MCF-7 cells, Table 4.1, 2 h exposure, no DIC, ± s.e.): 8 µM | IC50 (MCF-7 cells; read-out: MCF7 IC50, Table 1): 8 µM
